Earlier results on 1 substance are cited in US20180263919A1, “THERAPEUTIC ELECTROSPUN FIBER COMPOSITIONS” (The Johns Hopkins University, priority 2006, published 2018).

The conditions of this series: in vivo, iv; cited from earlier work.

Take VEGF: the biologic half-life was 50 minutes.
